# Screening results deposited in PubChem by Broad Institute.
# ARNT TACC3 PPI: disrupts binding between human ARNT and TACC3; Q9Y6A5; AlphaScreen His-ARNT PAS-B/GST-TACC3 binding, luminescence; TACC3 fragment carries E629A point mutation; inhibition, % at 9.99 µM; hit rate 0.66% among 390,000;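 active means mean inhibition of replicates at least 50% and at least half of replicates each reaching 50%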;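 further: 0% = complete ARNT plus TACC3 wells and 100% = ARNT alone without TACC3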
# ERp5 inh: inhibitors of human ERp5; Q15084; hit rate 0.05% among 350,000; ERp5 insulin aggregation, absorbance 650 nm, 90 min; inhibition, % at 9.99 µM; AID 651711;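 active means mean replicate inhibition above about 25%, with every replicate also reaching it, limit read from the data, passing the limit was not always enough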
# PglD inh: inhibitors of Campylobacter jejuni PglD acetyltransferase | purified PglD enzyme, DTNB colorimetric CoA detection | inhibition, % at 12.5 µM | hit rate 0.098% among 360,000 | AID 602405; in the data active means inhibition above about 16%, passing the limit was not always enough
# PDI turbidity: PDI (human) enzyme inhibition | P07237 | PDI insulin aggregation turbidity, A650, 90 min | inhibition, % at 10 µM | hit rate 0.052% among 350,000 | AID 588391;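 active means mean inhibition across replicates of 30% or more, whatever share of single replicates reach that level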
# FGF22 binding-1: FGF22 (human) thermal shift binding | Q9HCT0 | hit rate 1.5% among 340,000 | recombinant FGF22 thermal shift, SYPRO orange fluorescence; percent of sucrose octasulfate shift, DMSO zero | activity (Tm shift, normalised), % at 9.99 µM | AID 651658;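 active means mean Tm shift, scaled 0 neutral to 100 positive control, at about 1.3% or above, every replicate too, limit read from the data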
# UUG fidelity: modulators of yeast start codon fidelity, primary screen, whole organism, S. cerevisiae, single point, plate reader | AID 602363, 2012 | S. cerevisiae UUG-firefly luciferase reporter, luminescence/redox ratio | activity score, % at 18.7 µM | hit rate 0.13% among 350,000;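 active = replicate mean at a twofold rise or more, about +100% in these data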;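 also: firefly luciferase made from a UUG start codon reports start codon fidelity; reporter light over untreated wells divided by growth signal over untreated wells; some hits fall short of that in this replicate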
# FGF22 binding-2: binders of human FGF22 by thermal shift; AID 720646; thermal shift activity, °C (ΔTm) at 38 µM; hit rate 2% among 1,000; recombinant FGF22 thermal shift, SYPRO orange fluorescence; shares compounds with FGF22 binding-1;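 active means fitted rise in melting shift crosses a set limit at or below the top valid dose tested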
# FGF22 TSA: FGF22 (human) binding by thermal shift | Thermal shift assay, SYPRO orange, melting temperature shift | Tm shift (activity), % at 38 µM | shares compounds with FGF22 binding-1 | 50 tested, under 10 active;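 active means compounds whose fitted dose curve of melting temperature shift rises past a set threshold within the tested doses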
# SYPRO no-protein: compound-only SYPRO artifact for FGF22 binders; shares compounds with FGF22 binding-1; compound-only SYPRO orange thermal shift counter-screen, no protein; hit rate 2% among 1,000; AID 743019; AC50, µM (doses to about 38 µM);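 active means rising signal whose fitted curve reaches the 0.54 level within the top valid dose, showing a melting point, actives reach about 13 µM in these data; inactive means the rest, including activity in the opposite direction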; further: value is where the raw curve crosses a fixed level and not half-maximal
# Active calls of the source: *; i = inactive; x = no result given; [ ] = remark or other dose. An excerpt weighted towards active compounds, which were near 1.9% of everything screened.
SMILES,ARNT TACC3 PPI,ERp5 inh,PglD inh,PDI turbidity,FGF22 binding-1,UUG fidelity,FGF22 binding-2,SYPRO no-protein,others
COc1ccccc1C(=O)N1C[C@H]2[C@@H](c3ccccc31)[C@H](CO)N2C(=O)C1CCCCC1,2,0,-1,x,1.7*,12,0.02,i,
O=C(c1cccc(F)c1)N1C[C@@H]2[C@H](c3ccccc31)[C@H](CO)N2C(=O)C1CCCCC1,1,2,3,x,66*,2,-0.081[42 µM],i,
CCNC(=O)C[C@H]1CC[C@@H]2[C@@H](COc3ccc(NC(=O)c4cccs4)cc3C(=O)N2C)O1,10,0,4,x,0,-22,x,x,
CN(C)C(=O)C[C@H]1CC[C@@H]2[C@H](COc3ccc(NC(=O)C4CCCC4)cc3C(=O)N2C)O1,x,-3,x,x,x,x,x,x,
COc1ccc(Br)cc1S(=O)(=O)Nc1ncccc1C,-29,7,x,-3,1.5*,x,0.057,i,
C=CCC1c2cccc(C(=O)O)c2C(=O)N1c1cccc(C)c1 (centres undefined),-14,-3,4,-7,0,8,x,x,
C=CCC1c2cccc(C(=O)O)c2C(=O)N1c1cccc(OC)c1 (centres undefined),-5,-5,6,4,18*,-9,0.13,i,
Cc1ccc(NC(=O)CN(C)C(C)C(=O)Nc2ccc(S(=O)(=O)N3CCCC3)cc2)cc1 (centres undefined),0,5,-3,-2,13*,7,0.009,i,
Cc1ccc(OCCCC(=O)Nc2ccc(S(=O)(=O)N3CCOCC3)cc2)cc1,-9,0,-3,7,2.5*,-14,-0.17,i,FGF22 TSA=0
O=C(CCCOc1ccccc1)Nc1ccc(S(=O)(=O)N2CCOCC2)cc1,1,x,2,4,x,12,x,x,
Cc1ccc(S(=O)(=O)N[C@H]2C=C[C@@H](CC(=O)N3CCc4ccccc4C3)O[C@@H]2CO)cc1,2,-1,2,x,1.3*,-3,-0.004,i,
Cc1ccc(S(=O)(=O)N[C@H]2C=C[C@H](CC(=O)N3CCc4ccccc4C3)O[C@H]2CO)cc1,-11,-3,1,x,1.3*,-3,0.048[42 µM],i,

# Continued; it opens with the 3 that closed the last part.
SMILES,ARNT TACC3 PPI,ERp5 inh,PglD inh,PDI turbidity,FGF22 binding-1,UUG fidelity,FGF22 binding-2,SYPRO no-protein,others
O=C(CCCOc1ccccc1)Nc1ccc(S(=O)(=O)N2CCOCC2)cc1,1,x,2,4,x,12,x,x,
Cc1ccc(S(=O)(=O)N[C@H]2C=C[C@@H](CC(=O)N3CCc4ccccc4C3)O[C@@H]2CO)cc1,2,-1,2,x,1.3*,-3,-0.004,i,
Cc1ccc(S(=O)(=O)N[C@H]2C=C[C@H](CC(=O)N3CCc4ccccc4C3)O[C@H]2CO)cc1,-11,-3,1,x,1.3*,-3,0.048[42 µM],i,
Cc1ccc(S(=O)(=O)N[C@@H]2C=C[C@@H](CC(=O)N3CCc4ccccc4C3)O[C@H]2CO)cc1,-7,4,5,x,-1,7,x,x,
COc1cc(OC)cc(C(=O)NCC2CCN(C(=O)C(=O)c3cc4ccccc4o3)CC2)c1,x,-8,x,x,0,x,x,x,
CSc1ccc(C(=O)NCC2CCN(C(=O)C(=O)c3cc4ccccc4o3)CC2)cc1,x,-6,x,x,1.5*,x,-0.037,i,
CCS(=O)(=O)Nc1ccc2c(c1)C(=O)N(C)C[C@H](OC)[C@@H](C)CN(C(=O)C1CC1)[C@H](C)CO2,-8,-9,-2,x,0,-1,x,x,
CC(C)C#Cc1cnc2c(c1)C(=O)N([C@@H](C)CO)C[C@@H](C)[C@@H](CN(C)C(=O)c1cnccn1)O2,-20,1,12,x,1.6*,3,-0.002[42 µM],i,
C[C@H]1CN([C@@H](C)CO)C(=O)c2cc(C#CC3(O)CCCC3)cnc2O[C@H]1CN(C)C(=O)CC1CC1,-4,2,3,x,1,6,x,x,
CC(C)C#Cc1cnc2c(c1)C(=O)N([C@H](C)CO)C[C@H](C)[C@H](CN(C)C(=O)c1cnccn1)O2,-10,2,3,x,1.5*,3,-0.007[42 µM],i,
CC(C)C#Cc1cnc2c(c1)C(=O)N([C@@H](C)CO)C[C@H](C)[C@@H](CN(C)C(=O)c1cnccn1)O2,-6,0,10,x,1.5*,1,0.039[42 µM],i,
C[C@H](CO)N1C[C@H](C)[C@H](CN(C)C(=O)CC2CC2)Oc2ncc(C#CC3(O)CCCC3)cc2C1=O,-4,1,0,x,1.4*,-1,-0.086,i,
C[C@H]1CN([C@@H](C)CO)C(=O)c2cc(C#CCN(C)C)cnc2O[C@H]1CN(C)C(=O)c1cnccn1,35,4,4,x,0,x,x,x,
CCC(=O)N(C)C[C@H]1Oc2ncc(C#CC(C)(C)O)cc2C(=O)N([C@H](C)CO)C[C@@H]1C,-11,-3,1,x,0,3,x,x,
CC(=O)N(C)C[C@@H]1Oc2ncc(C#CC(C)(C)O)cc2C(=O)N([C@@H](C)CO)C[C@H]1C,-14,-2,0,x,1.6*,-7,-0.045,i,

# Nothing new here: entries from further up.
SMILES,ARNT TACC3 PPI,ERp5 inh,PglD inh,PDI turbidity,FGF22 binding-1,UUG fidelity,FGF22 binding-2,SYPRO no-protein,others
CC(C)C#Cc1cnc2c(c1)C(=O)N([C@H](C)CO)C[C@H](C)[C@H](CN(C)C(=O)c1cnccn1)O2,-10,2,3,x,1.5*,3,-0.007[42 µM],i,
CC(C)C#Cc1cnc2c(c1)C(=O)N([C@@H](C)CO)C[C@H](C)[C@@H](CN(C)C(=O)c1cnccn1)O2,-6,0,10,x,1.5*,1,0.039[42 µM],i,

# (continued)
SMILES,ARNT TACC3 PPI,ERp5 inh,PglD inh,PDI turbidity,FGF22 binding-1,UUG fidelity,FGF22 binding-2,SYPRO no-protein,others
CCNC(=O)C[C@H]1CC[C@H](NC(=O)C2CC2)[C@@H](CO)O1,11,-2,2,x,0,11,x,x,
Cc1noc(C)c1NC(=O)Nc1ccc2c(c1)C(=O)N([C@H](C)CO)C[C@H](C)[C@H](CN(C)C(=O)Nc1ccccc1)OCCCC[C@H](C)O2,-7,-3,0,x,0,24,x,x,
C[C@@H]1CCCCO[C@H](CN(C)Cc2ccccc2)[C@H](C)CN([C@H](C)CO)C(=O)c2cc(NS(=O)(=O)c3ccc(F)cc3)ccc2O1,4,5,-1,x,x,15,x,x,
Cc1[nH]c2ccccc2c1C(=O)C(=O)NCCOc1ccccc1,-4,2,x,2,17*,x,0.084,i,
COc1ccc(CCNC(=O)C(=O)c2c(C)[nH]c3ccccc23)cc1,-2,5,-2,-5,0,-11,x,x,
Cc1ccc(-n2nnnc2/C=C\Nc2cc(C)on2)cc1,-22,x,11,-1,x,-15,x,x,
COc1ccc(-n2nnnc2/C=C\Nc2ccc(C)cc2)cc1,-2,0,-2,14,25*,-15,0.094,i,
CC(=O)N1[C@@H]2c3ccc(-c4ccccc4)c(=O)n3C[C@H]1[C@H](CO)[C@H]2C(=O)NCCCN1CCOCC1,x,9,x,x,0,x,x,x,
CCCNC(=O)N1C[C@H](O)COC[C@H]2O[C@H](CC(=O)N[C@H]3CCN(Cc4ccccc4)C3)CC[C@@H]21,-2,0,4,x,0,-6,x,x,
CC(=O)Nc1ccc(/C(C)=N/Nc2nc(Nc3ccccc3)nc(N3CCOCC3)n2)cc1,13,5,x,4,1.6*,x,0.029,i,
Nc1nnc(CC(=O)N/N=C/c2cc([N+](=O)[O-])cc(Br)c2O)s1,9,-1,x,-10,1.8*,x,x,i,
C[C@@H]1CCCCO[C@@H](CN(C)S(=O)(=O)c2ccccc2)[C@H](C)CN([C@H](C)CO)C(=O)c2cc(NS(=O)(=O)c3ccc(F)cc3)ccc2O1,12,-2,0,x,-1,-6,x,x,
